A selection: hits, their analogues and other compounds. The true share with any hit is near 0.46%.
GIV Gai3 FP = inhibitors of GIV GBA-motif binding to rat Galpha-i3. actives 0.42% (n = 210,000). Galpha-i3/FITC-GIV peptide fluorescence polarization, 90 min; active compounds read low; scaled: aluminum fluoride 0%, vehicle 100%. AID 1224905. percent of control (FP), % (no concentration beside the values). P08753;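 active means replicate mean at 85% of control or lower, very high polarization wells dropped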;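 further: wells of about 15 µL received 100 nL stock; the first replicate is given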
HCMV NEC inh = disrupts HCMV UL50-UL53 complex binding | AID 1918969 | 0.15% of 190,000 active | HTRF UL50-UL53 interaction, normalized percent inhibition | inhibition, % (no concentration beside the values); in the data active = inhibition above about 27%, passing the limit was not always enough
* hit, by the source's call; x = not tested or not shown.

SMILES	GIV Gai3 FP	HCMV NEC inh
CN1CC=C2C(C#N)=C(N)C(C#N)(C#N)C(CCc3ccccc3)C2C1 (configuration not stated)	-8.8*	-34
N#CC1=C(N)C(C#N)(C#N)C(c2ccc(Cl)cc2)C2CN(Cc3ccccc3)CC=C12 (configuration not stated)	-58*	x
CC(=O)N1CC=C2C(C#N)=C(N)C(C#N)(C#N)C(Cc3ccccc3)C2C1 (configuration not stated)	101	-24
CCCC1C2CN(Cc3ccccc3)CC=C2C(C#N)=C(N)C1(C#N)C#N (configuration not stated)	20*	-43
COc1ccc(C(=O)NCCc2cc3ccc(C)cc3[nH]c2=O)c(OC)c1	x	-16
CCCn1c(C)ccc(-c2noc(CCCC(=O)NCc3ccccc3)n2)c1=O	103	-28
NNC(=O)COc1c(Br)cc(Br)c2cccnc12	x	-17
Nc1c(Br)cc(Br)c2cccnc12	97	58*
Cc1ccc2oc(-c3nnc(C(=O)N4CCCC4)o3)c(C)c2c1	105	-42
CC(=O)NC1(NC(C)=O)CC(c2ccccc2)N(C)CC1C (configuration not stated)	97	-16
O=C(CCCn1c(=O)c2ccccc2n(Cc2ccc(Cl)cc2)c1=O)NC1CCCC1	102	5
COC(=O)C(C)N1C(=O)S/C(=C/c2ccc(N3CCCCCC3)o2)C1=O (configuration not stated)	-15*	-47
O=C(CN1C(=O)S/C(=C/c2ccc(N3CCCCCC3)o2)C1=O)N1CCCCCC1	x	-25
COc1cc(C=C2C(=O)NC(=O)NC2=O)cc(Cl)c1OCc1ccc(Cl)cc1	87	72*
COc1cc(C=C2C(=O)NC(=O)NC2=O)cc(Br)c1OCc1ccccc1Cl	105	7
COc1cc(C=C2C(=O)NC(=S)NC2=O)cc(Cl)c1OCCOc1ccccc1C	97	-16
COc1cc(C=C2C(=O)NC(=O)NC2=O)cc(Cl)c1OCCOc1ccccc1C	92	61*
COc1ccccc1OCCOc1c(Br)cc(C=C2C(=O)NC(=O)NC2=O)cc1OC	104	-1
COc1cc(C=C2C(=O)NC(=O)NC2=O)cc(Cl)c1OCC(=O)O	96	72*
COc1ccccc1OCCOc1c(Cl)cc(C=C2C(=O)NC(=O)NC2=O)cc1OC	106	63*
COc1cc(C=C2C(=O)NC(=S)NC2=O)ccc1OCC(=O)O	99	x
O=C(Nc1cccc(Br)c1)NC(C(=O)N1CCc2ccccc21)c1ccccc1 (configuration not stated)	98	x
C[C@]12CC[C@H]3c4ccc(O)cc4CC[C@H]3[C@@H]1CCC2=O	x	-7
CCSc1nn(CC(=O)Nc2ccc(F)cc2F)c(N)c1S(=O)(=O)c1ccc(C)cc1	99	-24
CCC(=O)Nc1nc2ccc(CC(=O)NCCCN3CCc4ccccc4C3)cc2s1	135	-20
O=C(Cc1ccccc1)Nc1ccccc1-c1ccc2ccccc2n1	102	x
COc1ccc(NC(=O)C2Nc3cc(F)ccc3S(=O)(=O)N2)cc1Cl (configuration not stated)	101	-14
COc1ccc2nc(NC(=O)c3sc4ncn(CC(=O)Nc5ccccc5OC)c(=O)c4c3C)sc2c1	112	x
O=C(c1ccc(Cl)c(S(=O)(=O)NCc2cccnc2)c1)N1CCN(c2ncccn2)CC1	x	-13
COc1cc(C=C2C(=O)NC(=O)NC2=O)ccc1OCC(C)C	98	-3
COc1cc(C=C2C(=O)NC(=S)NC2=O)cc(Cl)c1OCCOc1ccccc1	91	-13
O=C1NC(=O)C(=Cc2cc(Cl)c(OC(=O)c3ccccc3)c(Cl)c2)C(=O)N1	108	5
COc1cc(C=C2C(=O)NC(=O)NC2=O)cc(Br)c1OCC(C)C	105	87*
COc1cc(C=C2C(=O)NC(=O)NC2=O)cc(Cl)c1OCCOc1cccc(C)c1	86	44*
COc1ccc(C(=O)Oc2c(Cl)cc(C=C3C(=O)NC(=O)NC3=O)cc2OC)cc1	103	49*
Oc1c(N=Nc2ccccc2)cc2c3c1CCCN3CCC2	x	-40
Cc1cc(C)cc(N(Cc2nnc3n2CCCCC3)C(=O)Nc2ccccc2)c1	100	x
CC(C)(C)c1csc(-c2csc(S(=O)(=O)Nc3ccccc3F)c2)n1	103	x
COc1cccc(NC(=O)c2cc3cc4c5c(c3oc2=N)CCCN5CCC4)c1	-14*	-21
Cc1ccc(NC(=O)c2cc3cc4c5c(c3oc2=N)CCCN5CCC4)cc1	-14*	-23
COc1cccc(NC(=O)c2cc3ccccc3oc2=O)c1	x	-2
N=c1oc2c(Cl)cc(Cl)cc2cc1C(=O)Nc1ccc(F)cc1	100	-8
O=C(N=Nc1c(O)n(CN(Cc2ccccc2)Cc2ccccc2)c2ccccc12)c1ccco1	100	-140
CNC(=O)CNC(=O)Nc1ccc(Cl)c(Cl)c1	x	44*
CS(=O)CCNC(=O)Nc1ccc(Cl)c(Cl)c1 (configuration not stated)	107	x
CCOC(=O)N1CCN(C(=O)c2cccn3c(=O)c4cc5ccccc5cc4nc23)CC1	24*	x
Cc1ccc(C)c(N2CCN(C(=O)c3cccn4c(=O)c5ccccc5nc34)CC2)c1	104	x
Cc1ccc(C(=O)OC2=C(c3ccccc3)C(=O)c3ccccc3C2=O)cc1	102	x
Cc1ccc(C(=O)OC2=CC(=O)c3ccccc3C2=O)cc1	84*	36
Cc1ccccc1NC(=O)COC(=O)c1cccc2ccccc12	x	-23
O=C(Nc1ccc2c(c1)OCO2)Nc1nccn(-c2ccc3c(c2)CCC3)c1=O	100	x
CCN(CC)CCNc1cc(C)nc2c(-c3ccccc3Cl)c(C(F)(F)F)nn12	105	-9
NC(=S)c1cc2ccc(O)cc2oc1=O	124	-107
NC(=S)c1cc2ccccc2oc1=O	6.0*	x
N#Cc1c(N)n(Cc2ccccc2)c2nc3ccccc3nc12	x	-20
Cc1ccc(S(=O)(=O)Nc2c(C#N)c3nc4ccccc4nc3n2Cc2ccccc2)cc1	x	77*
N#Cc1c(NS(=O)(=O)c2ccccc2)n(-c2ccccc2)c2nc3ccccc3nc12	x	-42
C=CCn1c(NS(=O)(=O)c2ccccc2)c(C#N)c2nc3ccccc3nc21	x	65*
CN(C)c1cccc(C(=O)N2CCN(c3cc(=O)n(C)c(=O)n3C)CC2)c1	103	x
CC1CCN(C(=O)c2c(-c3ccccc3)nc3n2CCS3(=O)=O)CC1	104	19
The listing continues:
SMILES	GIV Gai3 FP	HCMV NEC inh
O=C1/C(=C/c2cccs2)CN(Cc2ccccc2)C/C1=C\c1cccs1	107	-20
Cn1cccc1/C=C1\CC(c2ccccc2)C/C(=C\c2cccn2C)C1=O (configuration not stated)	203	-22
CC1C/C(=C/c2cccn2C)C(=O)/C(=C/c2cccn2C)C1 (configuration not stated)	-75*	x
Cn1cccc1/C=C1\CN(Cc2ccccc2)C/C(=C\c2cccn2C)C1=O	-88*	-58
COc1ccc(CCN(C)c2nc(N)c3c(N)nc(SCC(=O)O)cc3c2C#N)cc1OC	x	82*
COc1cc2c(C#N)c(N(C)CCc3ccc(OC)c(OC)c3)nc(N)c2c(N)n1	x	-11
CC(C)NC(=O)N1CCCC(c2cccc(C(=O)N3CCCN(C)CC3)c2)C1 (configuration not stated)	110	-24
Cc1ccc(OC(=O)C2COc3ccccc3O2)cc1C (configuration not stated)	x	-13

Compound activity deposited in PubChem BioAssay by ICCB-Longwood Screening Facility, Harvard Medical School.
